# Antibody variant affinities, Ab-95 light chain, assay 2

Values reported by Engelhart et al. 2022, doi:10.1038/s41597-022-01779-4 (FLAb copy).

The target is the same throughout: PDVDLGDISGINAS, from the HR2 region of SARS-CoV-2 spike.

The variants keep the heavy chain, the linker and the frameworks of Ab-95 (scFv order VH, three GGGGS repeats, VL).
VH: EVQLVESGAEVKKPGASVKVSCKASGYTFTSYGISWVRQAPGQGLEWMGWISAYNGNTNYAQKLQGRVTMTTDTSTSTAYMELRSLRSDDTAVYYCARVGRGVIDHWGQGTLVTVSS
VL: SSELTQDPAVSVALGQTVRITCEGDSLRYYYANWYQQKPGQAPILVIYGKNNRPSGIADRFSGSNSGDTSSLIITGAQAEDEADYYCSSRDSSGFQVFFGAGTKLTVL

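The starting antibody came from a phage panning campaign against this peptide. Variants in AAYL52 differ from the parent at up to three CDR positions; double and triple changes were sampled at random. Affinity was read by AlphaSeq, a pooled yeast mating assay with surface-displayed partners. Mating (16 h, 30 °C) was followed by selection of diploids and sequencing of their barcodes. The ratio of observed to expected reads was calibrated, replicate by replicate, on BCL2-family standards whose Kd was known from biolayer interferometry. Mating was done three times.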

The parent's light chain CDRs are EGDSLRYYYAN, GKNNRPS, SSRDSSGFQVF; each variant's own CDRs replace them letter for letter.
Numbers give log10(Kd / nM), so 0 is 1 nM and 3 is 1 µM. Smaller is tighter.
"nd" means that the variant was in the library but no mating with the target was seen in that replicate; the authors take this as a sign of poor binding, and no number exists.
Three control strains display no target. For library AAYL52, 28% of the pairings with them gave a signal, with a median of 3.91 and one signal in twenty below 2.90, so weak values seen in few replicates may be background.
In this assay the parent's reference entry averaged 2.31; its copy inside this library read 2.25.

"replicates, log10 nM",CDR-L1,CDR-L2,CDR-L3
nd / nd / 4.25,EGDQLRYYYAD,GGNNRPS,SSRDSSGFQVF
nd / 4.00 / nd,EEYSLAYYYAN,GKNNRPS,SSRDSSGFQVF
3.39 / nd / 4.16,EGGSLRYYYAN,GLNNGPS,SSRDSSGFQVF
nd / 3.05 / 3.48,EGDSYRYYYAN,GKNNRPS,SSRDTSGFQVF
3.36 / nd / nd,EGDSLSYYYAN,GKNNRPS,SSRDSSFFWVF
3.73 / 3.32 / 3.66,EGGSPRYYYAN,GKNNRPS,SSCDSSGFQVF
3.78 / nd / 4.66,EGDGIRYYYAN,GKNNCPS,SSRDSSGFQVF
nd / 3.43 / nd,EGDSNRYYYAN,GKNNRWS,SSRDSSGFQVF
3.21 / 2.74 / 2.74,EGTSLRYYYAN,GKNNRPS,SSRDSSHFQTF
nd / nd / nd,EGDSLRYYYAN,GKCNRPS,SSRKSNGFQVF
nd / nd / nd,EGDSLRYYYAN,GKNKRPH,YSRDSSGFQVF
2.51 / 2.53 / 2.54,EGMSLRYYYAN,GRNNRPS,SSRDSSGFQVF
nd / 5.44 / nd,EGDSLRYWYAN,KKNNRPS,SSRGSSGFQVF
nd / nd / nd,EGCSLAYYYAN,GKNNRPS,SSRDSLGFQVF
2.64 / 3.09 / 3.00,EIDSLRPYYAN,GKNNRPS,SSKDSSGFQVF
nd / 3.87 / nd,EGDSLRYYYAN,GKNNRPS,SSRDSSLFPGF
nd / nd / nd,EGDSLRYYYAN,AKNNQPS,SSRDSSGFQVC
3.52 / 3.74 / 3.99,EGDSLRYYYAN,GKNNDPS,SSRDSQGFQHF
1.63 / 1.62 / 1.10,FGDSLTYYNAN,GKNNRPS,SSRDSSGFQVF
nd / 4.27 / 4.22,EGDSLRYYYAN,GKNNRPG,SSGDSSGFFVF
4.53 / 5.63 / 4.35,EGDSLHWYYAN,GWNNRPS,SSRDSSGFQVF
2.80 / 2.67 / 2.94,EGDSKRYSYAN,GKNNRPN,SSRDSSGFQVF
nd / nd / nd,EGDSLRYYRAN,GKNNRPS,SSRCSEGFQVF
2.26 / 3.06 / 1.78,EGDSLRYYYAN,GKNNRES,CSRDSSGFQVP
1.44 / 1.64 / 0.75,EGDSLRQMYAN,GKNNRPS,SSRDESGFQVF
nd / nd / nd,EGCMLRYYYAN,GKNNRPS,SSRDSSKFQVF
3.42 / 3.46 / nd,EGDELRYYYAN,VKNNRPS,VSRDSSGFQVF
4.77 / nd / nd,FGSSLRYYYAN,GKNNQPS,SSRDSSGFQVF
nd / 5.58 / 3.97,IGDSWRYYYAN,GKNNRPS,SSRDSSGFQPF
1.64 / 1.82 / 1.37,EDDSLRYYEAN,GKNNRPS,SSRDSTGFQVF
4.14 / 4.10 / nd,EGDSLRYYYAN,GKQNRPS,SSRDSSGFGVA
2.81 / 3.05 / 2.61,KGDSLRYYYAN,SKNNLPS,SSRDSSGFQVF
3.18 / 3.60 / 2.61,EGDRLRYYYAN,GKNNRGS,SSRDSQGFQVF
1.76 / 1.36 / 0.80,EGDSLRYYKAN,GENNRPS,SSRVSSGFQVF
3.77 / 3.26 / nd,EGDSLRYYYAN,GKNNRWR,SSNDSSGFQVF
nd / nd / 3.99,EGDSLQYYYAN,GKNNRPS,DSRDSSVFQVF
nd / nd / nd,EGDSLRYYYKN,GKNNQPS,SSRDSSGFQVS
3.60 / 4.61 / 4.42,EGDSLRYYYSN,GKNNRPS,SSHDVSGFQVF
3.81 / 4.62 / nd,EGDSLWWYYAN,GKNNRPS,SSRDSSGFQVW
3.31 / 3.27 / 2.83,EGDSLREYYAN,GDNNRPS,SSRDSSGFSVF
nd / nd / nd,EGYSLTYYYAN,GKNNRPS,SSRDWSGFQVF
4.09 / 4.86 / nd,EGDSLRYMYAH,GKRNRPS,SSRDSSGFQVF
2.92 / nd / nd,EGDSLRYYYAN,SENNRPW,SSRDSSGFQVF

For reference, 7 entries of the list once more:

CDR-L1,CDR-L2,CDR-L3,"replicates, log10 nM"
EGDSLRYMYAH,GKRNRPS,SSRDSSGFQVF,4.09 / 4.86 / nd
EGDSNRYYYAN,GKNNRWS,SSRDSSGFQVF,nd / 3.43 / nd
EGDSLHWYYAN,GWNNRPS,SSRDSSGFQVF,4.53 / 5.63 / 4.35
EGDSLRYYRAN,GKNNRPS,SSRCSEGFQVF,nd / nd / nd
EGDSKRYSYAN,GKNNRPN,SSRDSSGFQVF,2.80 / 2.67 / 2.94
EGCMLRYYYAN,GKNNRPS,SSRDSSKFQVF,nd / nd / nd
KGDSLRYYYAN,SKNNLPS,SSRDSSGFQVF,2.81 / 3.05 / 2.61